Measurements from publication PMC5864910, “Mutacin 1140 Lantibiotic Variants Are Efficacious Against Clostridium difficile Infection” (Frontiers in Microbiology, 2018).

What was measured:
[1] = test system: HepG2 human hepatocellular carcinoma cells; conditions: HepG2 cytotoxicity
[2] = test system: Mycobacterium phlei
[3] = test system: Nav Channel; test: Safety Screen 44: Nav Channel; assay type: binding, human
[4] = test system: NMDA ion channel receptor; test: Safety Screen 44: NMDA; assay type: binding, human
[5] = test system: Ca2+ Channel; test: Safety Screen 44: Ca2+ Channel; assay type: binding, human
[6] = test system: Kv Channel; test: Safety Screen 44: Kv Channel; assay type: binding, human
[7] = test system: BZD (central); test: Safety Screen 44: BZD (central); assay type: binding, human

SMILES	HepG2 EC50 [1]	Minimum Inhibitory Concentration Mycobacterium phlei [2]	Cerep SafetyScreen 44 % Inhibition Nav Channel [3]	Cerep SafetyScreen 44 % Inhibition NMDA [4]	Cerep SafetyScreen 44 % Inhibition Ca2+ Channel [5]	Cerep SafetyScreen 44 % Inhibition Kv Channel [6]	Cerep SafetyScreen 44 % Inhibition BZD (central) [7]
C/C=C(\NC(=O)[C@H](CCCNC(=N)N)NC(=O)[C@H](C)NC(=O)[C@@H]1CS[C@@H](C)[C@@H](NC(=O)[C@@H]2CSC[C@@H](NC(=O)[C@H](CCCCN)NC(=O)[C@@H](N)Cc3ccccc3)C(=O)N[C@@H](Cc3c[nH]c4ccccc34)C(=O)N[C@@H](CCSC)C(=O)N[C@@H](CC(C)C)C(=O)N2)C(=O)N2CCC[C@H]2C(=O)NCC(=O)N1)C(=O)NCC(=O)N[C@@H]1CSC[C@@H]2NC(=O)[C@H](Cc3ccc(O)cc3)NC(=O)[C@@H](CS/C=C\NC2=O)NC(=O)[C@H](CC(N)=O)NC(=O)[C@H](Cc2ccccc2)NC1=O [S5M]	260 µg/mL	4 µg/mL					
C=C1NC(=O)[C@H](Cc2c[nH]c3ccccc23)NC(=O)[C@H](NC(=O)[C@H](CCCCN)NC(=O)[C@@H](N)Cc2ccc(O)cc2)CSC[C@@H](C(=O)N[C@H]2C(=O)N3CCC[C@H]3C(=O)NCC(=O)N[C@H](C(=O)N[C@@H](C)C(=O)N[C@@H](CCCNC(=N)N)C(=O)N/C(=C\C)C(=O)NCC(=O)N[C@@H]3CSC[C@@H]4NC(=O)[C@H](Cc5ccc(O)cc5)NC(=O)[C@@H](CS/C=C\NC4=O)NC(=O)[C@H](CC(N)=O)NC(=O)[C@H](Cc4ccccc4)NC3=O)CS[C@H]2C)NC(=O)[C@H](CC(C)C)NC1=O [F1Y]	523 µg/mL	4 µg/mL	9%	6%	-12%	0%	-20%
C/C=C(\NC(=O)[C@H](CCCNC(=N)N)NC(=O)[C@H](C)NC(=O)[C@@H]1CS[C@@H](C)[C@@H](NC(=O)[C@@H]2CSC[C@@H](NC(=O)[C@H](CCCCN)NC(=O)[C@@H](N)Cc3ccccc3)C(=O)N[C@@H](Cc3c[nH]c4ccccc34)C(=O)N[C@@H](C)C(=O)N[C@@H](CC(C)C)C(=O)N2)C(=O)N2CCC[C@H]2C(=O)NCC(=O)N1)C(=O)NCC(=O)N[C@@H]1CSC[C@@H]2NC(=O)[C@H](Cc3ccc(O)cc3)NC(=O)[C@@H](CS/C=C\NC2=O)NC(=O)[C@H](CC(N)=O)NC(=O)[C@H](Cc2ccccc2)NC1=O [S5A]	171 µg/mL	4 µg/mL					
C=C1NC(=O)[C@H](Cc2c[nH]c3ccccc23)NC(=O)[C@H](NC(=O)[C@H](CCC(N)=O)NC(=O)[C@@H](N)Cc2ccccc2)CSC[C@@H](C(=O)N[C@H]2C(=O)N3CCC[C@H]3C(=O)NCC(=O)N[C@H](C(=O)N[C@@H](C)C(=O)N[C@@H](CCCNC(=N)N)C(=O)N/C(=C\C)C(=O)NCC(=O)N[C@@H]3CSC[C@@H]4NC(=O)[C@H](Cc5ccc(O)cc5)NC(=O)[C@@H](CS/C=C\NC4=O)NC(=O)[C@H](CC(N)=O)NC(=O)[C@H](Cc4ccccc4)NC3=O)CS[C@H]2C)NC(=O)[C@H](CC(C)C)NC1=O [K2Q]	> 1000 µg/mL	4 µg/mL	18%	17%	5%	1%	-23%
C=C1NC(=O)[C@H](Cc2c[nH]c3ccccc23)NC(=O)[C@H](NC(=O)[C@H](CCCCN)NC(=O)[C@@H](N)Cc2ccccc2)CSC[C@@H](C(=O)N[C@H]2C(=O)N3CCC[C@H]3C(=O)NCC(=O)N[C@H](C(=O)N[C@@H](C)C(=O)N[C@@H](CCCNC(=N)N)C(=O)N/C(=C\C)C(=O)NCC(=O)N[C@@H]3CSC[C@@H]4NC(=O)[C@H](Cc5ccc(O)cc5)NC(=O)[C@@H](CS/C=C\NC4=O)NC(=O)[C@H](CC(N)=O)NC(=O)[C@H](Cc4ccccc4)NC3=O)CS[C@H]2C)NC(=O)[C@H](CC(N)=O)NC1=O [L6N]	> 1000 µg/mL	4 µg/mL	-1%	11%	-11%	4%	-9%
C=C1NC(=O)[C@H](Cc2c[nH]c3ccccc23)NC(=O)[C@H](NC(=O)[C@H](CCCCN)NC(=O)[C@H](C)N)CSC[C@@H](C(=O)N[C@H]2C(=O)N3CCC[C@H]3C(=O)NCC(=O)N[C@H](C(=O)N[C@@H](C)C(=O)N[C@@H](CCCNC(=N)N)C(=O)N/C(=C\C)C(=O)NCC(=O)N[C@@H]3CSC[C@@H]4NC(=O)[C@H](Cc5ccc(O)cc5)NC(=O)[C@@H](CS/C=C\NC4=O)NC(=O)[C@H](CC(N)=O)NC(=O)[C@H](Cc4ccccc4)NC3=O)CS[C@H]2C)NC(=O)[C@H](CC(C)C)NC1=O [F1A]	805 µg/mL	2 µg/mL	-20%	26%	-17%	-12%	-4%
C=C1NC(=O)[C@H](Cc2c[nH]c3ccccc23)NC(=O)[C@H](NC(=O)[C@H](CCCCN)NC(=O)[C@@H](N)CC(N)=O)CSC[C@@H](C(=O)N[C@H]2C(=O)N3CCC[C@H]3C(=O)NCC(=O)N[C@H](C(=O)N[C@@H](C)C(=O)N[C@@H](CCCNC(=N)N)C(=O)N/C(=C\C)C(=O)NCC(=O)N[C@@H]3CSC[C@@H]4NC(=O)[C@H](Cc5ccc(O)cc5)NC(=O)[C@@H](CS/C=C\NC4=O)NC(=O)[C@H](CC(N)=O)NC(=O)[C@H](Cc4ccccc4)NC3=O)CS[C@H]2C)NC(=O)[C@H](CC(C)C)NC1=O [F1N]	> 1000 µg/mL	8 µg/mL	7%	3%	-22%	-4%	-3%
C=C1NC(=O)[C@H](Cc2c[nH]c3ccccc23)NC(=O)[C@H](NC(=O)[C@H](CCCCN)NC(=O)[C@@H](N)[C@@H](C)O)CSC[C@@H](C(=O)N[C@H]2C(=O)N3CCC[C@H]3C(=O)NCC(=O)N[C@H](C(=O)N[C@@H](C)C(=O)N[C@@H](CCCNC(=N)N)C(=O)N/C(=C\C)C(=O)NCC(=O)N[C@@H]3CSC[C@@H]4NC(=O)[C@H](Cc5ccc(O)cc5)NC(=O)[C@@H](CS/C=C\NC4=O)NC(=O)[C@H](CC(N)=O)NC(=O)[C@H](Cc4ccccc4)NC3=O)CS[C@H]2C)NC(=O)[C@H](CC(C)C)NC1=O [F1T]	790 µg/mL	4 µg/mL	19%	12%	-5%	9%	-10%
C=C1NC(=O)[C@H](Cc2c[nH]c3ccccc23)NC(=O)[C@H](NC(=O)[C@H](CCCCN)NC(=O)[C@@H](N)CO)CSC[C@@H](C(=O)N[C@H]2C(=O)N3CCC[C@H]3C(=O)NCC(=O)N[C@H](C(=O)N[C@@H](C)C(=O)N[C@@H](CCCNC(=N)N)C(=O)N/C(=C\C)C(=O)NCC(=O)N[C@@H]3CSC[C@@H]4NC(=O)[C@H](Cc5ccc(O)cc5)NC(=O)[C@@H](CS/C=C\NC4=O)NC(=O)[C@H](CC(N)=O)NC(=O)[C@H](Cc4ccccc4)NC3=O)CS[C@H]2C)NC(=O)[C@H](CC(C)C)NC1=O [F1S]	> 1000 µg/mL	4 µg/mL	-8%	9%	-18%	-3%	1%
C=C1NC(=O)[C@H](Cc2c[nH]c3ccccc23)NC(=O)[C@H](NC(=O)[C@H](CCCCN)NC(=O)[C@@H](N)Cc2ccccc2)CSC[C@@H](C(=O)N[C@H]2C(=O)N3CCC[C@H]3C(=O)NCC(=O)N[C@H](C(=O)N[C@@H](C)C(=O)N[C@@H](CC(=O)O)C(=O)N/C(=C\C)C(=O)NCC(=O)N[C@@H]3CSC[C@@H]4NC(=O)[C@H](Cc5ccc(O)cc5)NC(=O)[C@@H](CS/C=C\NC4=O)NC(=O)[C@H](CC(N)=O)NC(=O)[C@H](Cc4ccccc4)NC3=O)CS[C@H]2C)NC(=O)[C@H](CC(C)C)NC1=O [R13D]		8 µg/mL					
C=C1NC(=O)[C@H](Cc2c[nH]c3ccccc23)NC(=O)[C@H](NC(=O)[C@@H](NC(=O)[C@@H](N)Cc2ccccc2)[C@@H](C)CC)CSC[C@@H](C(=O)N[C@H]2C(=O)N3CCC[C@H]3C(=O)NCC(=O)N[C@H](C(=O)N[C@@H](C)C(=O)N[C@@H](CCCNC(=N)N)C(=O)N/C(=C\C)C(=O)NCC(=O)N[C@@H]3CSC[C@@H]4NC(=O)[C@H](Cc5ccc(O)cc5)NC(=O)[C@@H](CS/C=C\NC4=O)NC(=O)[C@H](CC(N)=O)NC(=O)[C@H](Cc4ccccc4)NC3=O)CS[C@H]2C)NC(=O)[C@H](CC(C)C)NC1=O [K2I]	> 1000 µg/mL	4 µg/mL	-10%	7%	-18%	-9%	-6%
C=C1NC(=O)[C@H](Cc2c[nH]c3ccccc23)NC(=O)[C@H](NC(=O)[C@H](CCC(=O)O)NC(=O)[C@@H](N)Cc2ccccc2)CSC[C@@H](C(=O)N[C@H]2C(=O)N3CCC[C@H]3C(=O)NCC(=O)N[C@H](C(=O)N[C@@H](C)C(=O)N[C@@H](CCCNC(=N)N)C(=O)N/C(=C\C)C(=O)NCC(=O)N[C@@H]3CSC[C@@H]4NC(=O)[C@H](Cc5ccc(O)cc5)NC(=O)[C@@H](CS/C=C\NC4=O)NC(=O)[C@H](CC(N)=O)NC(=O)[C@H](Cc4ccccc4)NC3=O)CS[C@H]2C)NC(=O)[C@H](CC(C)C)NC1=O [K2E]	> 1000 µg/mL	16 µg/mL	-10%	0%	-17%	-7%	-37%
